# Source: patent publication US20230295596A1, “SHORT-ACTING FACTOR VII POLYPEPTIDES” (published 2023)
# Target: V2, variant of human Factor VII (P10Q, K32E, A34E, R36E, T106N and V253N) (human)
substance,measurement,value
neuraminidase-agarose (Sigma N5254) (enzyme),sialic acid removed (Sialic Acid Fluorescence Labeling),> 99.9%
